Test results taken from patent US4579861A, “Aryloxypropanolamine derivatives, pharmaceutical compositions and adrenegic thereof” (Pierrel S.p.A., priority 1983, dated 1986).

The chains behind the UniProt entries cited, without tags or fusion partners.
UniProt Q8K4Z4, whole entry: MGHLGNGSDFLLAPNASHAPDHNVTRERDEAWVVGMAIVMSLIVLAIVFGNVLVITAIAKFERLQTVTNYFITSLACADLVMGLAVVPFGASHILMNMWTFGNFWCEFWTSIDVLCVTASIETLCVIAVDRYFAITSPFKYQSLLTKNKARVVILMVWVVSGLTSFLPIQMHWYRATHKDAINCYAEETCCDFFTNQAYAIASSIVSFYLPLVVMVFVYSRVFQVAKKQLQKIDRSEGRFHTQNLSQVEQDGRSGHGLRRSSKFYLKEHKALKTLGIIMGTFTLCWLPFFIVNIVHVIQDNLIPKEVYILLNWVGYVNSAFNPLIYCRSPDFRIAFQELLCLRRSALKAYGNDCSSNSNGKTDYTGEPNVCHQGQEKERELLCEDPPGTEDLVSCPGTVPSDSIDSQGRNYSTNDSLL

What was measured:
β2 (guinea pig trachea) = β2 (guinea pig trachea) (Cavia porcellus, UniProt Q8K4Z4); test: cell-based
in vivo = conditions: mouse, iv

SMILES	IC50 (β2 (guinea pig trachea)) [µM]	LD50 at 168 h (in vivo) [mg/kg]
CC(C)NCC(O)COc1ccc(CC(N)=O)cc1 (centres unmarked) [Atenolol, atenolol, reference compound]	5.7	
CC(CCc1ccccc1)NCC(O)c1ccc(O)c(C(N)=O)c1 (centres unmarked) [Labetalol, labetalol, reference compound]		55
